Data on three molecules can be found in ChEMBL document CHEMBL4402579, “Identification of Potent In Vivo Autotaxin Inhibitors that Bind to Both Hydrophobic Pockets and Channels in the Catalytic Domain” (J Med Chem, 2020).

In this assay the target is Autotaxin (Homo sapiens, UniProt Q13822). The assay can be described thus: Inhibition of ATX (unknown origin) expressed in human HEK293 cells using TG-mTMP as substrate after 2 hrs by fluorescence based plate reader assay.
Regarding `CCCCCCCN/C=C1\C(=O)N(c2ccc(F)cc2)C(=O)N=C1O`, the half-inhibitory concentration (IC50) (in general, the concentration at which inhibition is half-maximal) was found to be 0.25 µM.

`Cc1nc2ccccn2c(=O)c1Cc1ccc(Cl)cc1`: half-maximal inhibition (IC50) was put at 0.3 µM.

`CCN1CCN(C2=NC(=O)/C(=C/c3ccc(Cl)cc3)S2)CC1` yielded an IC50 of 0.42 µM.
